Test results reported in patent US6936585B2, “Corticotropin releasing factor 2 receptor agonists” (priority 2002, dated 2005).

Assays:
[1] = molecular target: T1, CRF1R (Homo sapiens, UniProt P34998); assay: CRF1R agonist activation (EC50 / Emax), called comparative CRF binding; type: cell-based; settings: for EC50: CRF1R EC50; for Emax: read-out: CRF1R Emax
T1 sequence (P34998 24-415): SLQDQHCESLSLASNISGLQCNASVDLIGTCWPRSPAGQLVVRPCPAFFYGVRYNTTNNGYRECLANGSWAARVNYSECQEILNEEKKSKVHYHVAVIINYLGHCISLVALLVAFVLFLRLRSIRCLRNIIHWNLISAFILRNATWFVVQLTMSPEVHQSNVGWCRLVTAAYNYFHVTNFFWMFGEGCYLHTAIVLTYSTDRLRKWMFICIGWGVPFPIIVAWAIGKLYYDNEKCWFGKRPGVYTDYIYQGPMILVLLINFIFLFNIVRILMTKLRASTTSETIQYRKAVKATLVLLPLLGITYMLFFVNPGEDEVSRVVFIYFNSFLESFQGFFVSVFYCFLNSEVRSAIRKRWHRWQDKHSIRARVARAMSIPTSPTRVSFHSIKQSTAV
How it was run: (§1)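 CRFR-expressing cells + peptide vs vehicle; read-out cAMP (lysate assay) or CRE-linked reporter expression (luciferase, CAT, fluorescent protein, alkaline phosphatase, etc.). Signal compared against vehicle-treated cells.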

[2] = molecular target: T2, CRF2R (Homo sapiens, UniProt Q13324); assay: CRF2R agonist activation (EC50 / Emax), called comparative CRF binding; type: cell-based; settings: for Emax: read-out: CRF2R Emax
T2 sequence (Q13324 1-411): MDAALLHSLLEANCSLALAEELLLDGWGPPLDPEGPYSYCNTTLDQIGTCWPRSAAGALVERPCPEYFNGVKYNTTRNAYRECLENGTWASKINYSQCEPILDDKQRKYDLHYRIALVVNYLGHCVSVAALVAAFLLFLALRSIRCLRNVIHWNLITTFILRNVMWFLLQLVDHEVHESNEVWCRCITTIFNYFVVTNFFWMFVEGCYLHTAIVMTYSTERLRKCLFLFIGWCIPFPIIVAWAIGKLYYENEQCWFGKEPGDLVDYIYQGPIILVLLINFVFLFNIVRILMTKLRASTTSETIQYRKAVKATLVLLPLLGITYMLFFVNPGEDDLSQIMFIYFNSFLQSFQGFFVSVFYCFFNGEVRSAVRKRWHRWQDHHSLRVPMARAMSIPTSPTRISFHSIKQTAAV
How it was run: as §1

With `CC[C@H](C)[C@H](NC(=O)[C@@H](NC(=O)[C@H](CC(=O)O)NC(=O)[C@H](CC(C)C)NC(=O)[C@H](CC(C)C)NC(=O)[C@H](CC(C)C)NC(=O)[C@H](C)NC(=O)[C@H](CC(N)=O)NC(=O)[C@H](CC(N)=O)NC(=O)[C@H](C)NC(=O)[C@H](C)NC(=O)[C@H](CCC(N)=O)NC(=O)[C@H](CCC(N)=O)NC(=O)[C@H](CCCCN)NC(=O)[C@H](CCC(=O)O)NC(=O)[C@H](CCCCN)NC(=O)[C@H](CCC(=O)O)NC(=O)[C@H](CCC(N)=O)NC(=O)[C@H](CCCCN)NC(=O)[C@H](CCC(=O)O)NC(=O)[C@@H](NC(=O)[C@H](CCC(=O)O)NC(=O)[C@@H](NC(=O)[C@H](CCSC)NC(=O)[C@H](CCCCN)NC(=O)[C@H](CCCNC(=N)N)NC(=O)[C@H](CC(C)C)NC(=O)[C@H](CC(C)C)NC(=O)[C@H](Cc1ccccc1)NC(=O)[C@H](Cc1ccccc1)NC(=O)[C@@H]1CCCN1C(=O)[C@H](CC(C)C)NC(=O)[C@H](CC(=O)O)NC(=O)[C@@H](NC(=O)[C@H](CO)NC(=O)[C@@H](NC(=O)[C@@H]1CCCN1C(=O)[C@@H]1CCCN1C(=O)CNC(=O)[C@@H]1CCC(=O)N1)[C@@H](C)CC)[C@@H](C)CC)[C@@H](C)CC)[C@@H](C)CC)[C@@H](C)O)C(N)=O` [compound 318] the EC50 [1] was 134 nM, the Emax [1] was 92.8% and the EC50 [2] was 9.95 nM. The Emax [2] was 95.4%.
With `CC[C@H](C)[C@H](NC(=O)[C@H](CCCNC(=N)N)NC(=O)[C@H](C)NC(=O)[C@H](CC(N)=O)NC(=O)[C@@H](NC(=O)[C@@H](NC(=O)[C@H](C)NC(=O)[C@H](CCC(N)=O)NC(=O)[C@H](CCC(N)=O)NC(=O)[C@H](CCCCN)NC(=O)[C@H](CCC(=O)O)NC(=O)[C@H](CCCCN)NC(=O)[C@H](CCC(=O)O)NC(=O)[C@H](CCC(N)=O)NC(=O)[C@H](CCCCN)NC(=O)[C@H](CCC(=O)O)NC(=O)[C@@H](NC(=O)[C@H](CCC(=O)O)NC(=O)[C@@H](NC(=O)[C@H](CCSC)NC(=O)[C@H](CCCCN)NC(=O)[C@H](CCCNC(=N)N)NC(=O)[C@H](CC(C)C)NC(=O)[C@H](CC(C)C)NC(=O)[C@H](Cc1ccc(O)cc1)NC(=O)[C@@H](NC(=O)[C@@H]1CCCN1C(=O)[C@H](CC(C)C)NC(=O)[C@H](CC(=O)O)NC(=O)[C@@H](NC(=O)[C@H](CO)NC(=O)[C@@H](NC(=O)[C@@H]1CCCN1C(=O)[C@@H]1CCCN1C(=O)CNC(=O)[C@@H]1CCC(=O)N1)[C@@H](C)CC)[C@@H](C)CC)[C@@H](C)CC)[C@@H](C)CC)[C@@H](C)CC)[C@@H](C)O)[C@@H](C)O)C(=O)N[C@@H](CC(C)C)C(=O)N[C@@H](C)C(=O)N[C@@H](CCCNC(=N)N)C(=O)N[C@H](C(N)=O)C(C)C` [compound 149] the EC50 [1] was no less than 1000 nM, the Emax [1] was 40.7% and the EC50 [2] was 26.2 nM. It also gave an Emax [2] of 95.5%.
For `CC[C@H](C)[C@H](NC(=O)[C@@H](NC(=O)[C@H](CC(=O)O)NC(=O)[C@H](CC(C)C)NC(=O)[C@H](CC(C)C)NC(=O)[C@H](CC(C)C)NC(=O)[C@H](CCCNC(=N)N)NC(=O)[C@H](CC(N)=O)NC(=O)[C@H](CC(N)=O)NC(=O)[C@H](C)NC(=O)[C@H](C)NC(=O)[C@H](CCC(N)=O)NC(=O)[C@H](CCC(N)=O)NC(=O)[C@H](CCCCN)NC(=O)[C@H](CCC(=O)O)NC(=O)[C@H](CCCCN)NC(=O)[C@H](CCC(=O)O)NC(=O)[C@H](CCC(N)=O)NC(=O)[C@H](CCCCN)NC(=O)[C@H](CCC(=O)O)NC(=O)[C@@H](NC(=O)[C@H](CCC(=O)O)NC(=O)[C@@H](NC(=O)[C@H](CCSC)NC(=O)[C@H](CCCCN)NC(=O)[C@H](CCCNC(=N)N)NC(=O)[C@H](CC(C)C)NC(=O)[C@H](CC(C)C)NC(=O)[C@@H](NC(=O)[C@H](Cc1ccccc1)NC(=O)[C@@H]1CCCN1C(=O)[C@H](CC(C)C)NC(=O)[C@H](CC(=O)O)NC(=O)[C@@H](NC(=O)[C@H](CO)NC(=O)[C@@H](NC(=O)[C@@H]1CCCN1C(=O)[C@@H]1CCCN1C(=O)CNC(=O)[C@@H]1CCC(=O)N1)[C@@H](C)CC)[C@@H](C)CC)[C@@H](C)CC)[C@@H](C)CC)[C@@H](C)CC)[C@@H](C)O)C(N)=O` [compound 189], the Emax [1] was 57% and the Emax [2] was 96%.
Compound `CC[C@H](C)[C@H](NC(=O)[C@H](CCCNC(=N)N)NC(=O)[C@H](C)NC(=O)[C@H](CC(C)C)NC(=O)[C@H](CC(C)C)NC(=O)[C@H](CCCNC(=N)N)NC(=O)[C@H](C)NC(=O)[C@H](CC(N)=O)NC(=O)[C@H](CC(N)=O)NC(=O)[C@H](C)NC(=O)[C@H](C)NC(=O)[C@H](CCC(N)=O)NC(=O)[C@H](CCC(N)=O)NC(=O)[C@H](CCCCN)NC(=O)[C@H](CCC(=O)O)NC(=O)[C@H](CCCCN)NC(=O)[C@H](CCC(=O)O)NC(=O)[C@H](CCC(N)=O)NC(=O)[C@H](CCCCN)NC(=O)[C@H](CCC(=O)O)NC(=O)[C@@H](NC(=O)[C@H](CCC(=O)O)NC(=O)[C@@H](NC(=O)[C@@H](NC(=O)[C@H](CCCCN)NC(=O)[C@H](CCCNC(=N)N)NC(=O)[C@H](CC(C)C)NC(=O)[C@H](CC(C)C)NC(=O)[C@H](CCC(N)=O)NC(=O)[C@H](Cc1ccccc1)NC(=O)[C@@H]1CCCN1C(=O)[C@H](CC(C)C)NC(=O)[C@H](CC(=O)O)NC(=O)[C@@H](NC(=O)[C@H](CO)NC(=O)[C@@H](NC(=O)[C@@H]1CCCN1C(=O)[C@@H]1CCCN1C(=O)CNC(=O)[C@@H]1CCC(=O)N1)[C@@H](C)CC)[C@@H](C)CC)C(C)C)[C@@H](C)CC)[C@@H](C)CC)C(N)=O` [compound 279] has an Emax [1] of 93% and an Emax [2] of 100%.
`CC[C@H](C)[C@H](NC(=O)[C@H](CCC(=O)O)NC(=O)[C@@H](NC(=O)[C@H](CCSC)NC(=O)[C@H](CCCCN)NC(=O)[C@H](CCCNC(=N)N)NC(=O)[C@H](CC(C)C)NC(=O)[C@H](CC(C)C)NC(=O)[C@H](CCC(N)=O)NC(=O)[C@H](Cc1ccccc1)NC(=O)[C@@H]1CCCN1C(=O)[C@H](CC(C)C)NC(=O)[C@H](CC(=O)O)NC(=O)[C@@H](NC(=O)[C@H](CO)NC(=O)[C@@H](NC(=O)[C@@H]1CCCN1C(=O)[C@@H]1CCCN1C(=O)CNC(=O)[C@@H]1CCC(=O)N1)[C@@H](C)CC)[C@@H](C)CC)[C@@H](C)CC)C(=O)N[C@@H](CCC(=O)O)C(=O)N[C@@H](CCCCN)C(=O)N[C@@H](CCC(N)=O)C(=O)N[C@@H](CCC(=O)O)C(=O)N[C@@H](CCCCN)C(=O)N[C@@H](CCC(=O)O)C(=O)N[C@@H](CCCCN)C(=O)N[C@@H](CCC(N)=O)C(=O)N[C@@H](CCC(N)=O)C(=O)N[C@@H](C)C(=O)N[C@H](C(=O)N[C@@H](CC(N)=O)C(=O)N[C@@H](CC(N)=O)C(=O)N[C@@H](CCCNC(=N)N)C(=O)N[C@@H](CC(C)C)C(=O)N[C@@H](CC(C)C)C(=O)N[C@@H](CC(C)C)C(=O)N[C@@H](C)C(=O)N[C@H](C(=O)N[C@H](C(N)=O)C(C)C)[C@@H](C)O)[C@@H](C)O` [compound 12] showed an Emax [1] of 73% and an Emax [2] of 91%.
Work on `CC[C@H](C)[C@H](NC(=O)[C@@H](NC(=O)[C@H](CC(=O)O)NC(=O)[C@H](CC(C)C)NC(=O)[C@H](CC(C)C)NC(=O)[C@H](CC(C)C)NC(=O)[C@H](CCCNC(=N)N)NC(=O)[C@H](CC(N)=O)NC(=O)[C@H](CC(N)=O)NC(=O)[C@H](C)NC(=O)[C@H](C)NC(=O)[C@H](CCC(N)=O)NC(=O)[C@H](CCC(N)=O)NC(=O)[C@H](CCCCN)NC(=O)[C@H](CCC(=O)O)NC(=O)[C@H](CCCCN)NC(=O)[C@H](CCC(=O)O)NC(=O)[C@H](CCC(N)=O)NC(=O)[C@H](CCCCN)NC(=O)[C@H](CCC(=O)O)NC(=O)[C@@H](NC(=O)[C@H](CCC(=O)O)NC(=O)[C@@H](NC(=O)[C@H](CCSC)NC(=O)[C@H](CCCCN)NC(=O)[C@H](CCCNC(=N)N)NC(=O)[C@H](CC(C)C)NC(=O)[C@H](CC(C)C)NC(=O)CNC(=O)[C@@H](NC(=O)[C@@H]1CCCN1C(=O)[C@@H](NC(=O)[C@H](CC(=O)O)NC(=O)[C@H](CC(C)C)NC(=O)[C@H](CO)NC(=O)[C@H](CC(C)C)NC(=O)[C@@H](NC(=O)[C@@H](NC(=O)CNC(=O)[C@@H]1CCC(=O)N1)[C@@H](C)CC)C(C)C)C(C)C)[C@@H](C)CC)[C@@H](C)CC)[C@@H](C)CC)[C@@H](C)O)C(N)=O` [compound 153] yielded an Emax [1] of 7% and an Emax [2] of 97%.
